Earlier results, collected in patent publication US8236785B2, “Method of treating or preventing infertility in a female mammal and pharmaceutical kit for use in such method” (Pantarhei Bioscience B.V., priority 2007, dated 2012).

Conditions: cited from earlier work

## recLH: LH obtained from a recombinant cell line
In vivo
  half-life (t1/2): 12 to 13 h

## LH isolated from urine: luteinising hormone isolated from female urine
  in vivo half-life (t1/2): 10 to 20 min
